Test results: patent US10604523B2, “1-aryl-4-methyl-[1,2,4]triazolo[4,3-a]quinoxaline derivatives” (Janssen Pharmaceutica NV, priority 2011, dated 2020)

Protein sequences, listed by entry. Tags and fused reporters are not part of them.
UniProt Q9QYJ6, whole entry: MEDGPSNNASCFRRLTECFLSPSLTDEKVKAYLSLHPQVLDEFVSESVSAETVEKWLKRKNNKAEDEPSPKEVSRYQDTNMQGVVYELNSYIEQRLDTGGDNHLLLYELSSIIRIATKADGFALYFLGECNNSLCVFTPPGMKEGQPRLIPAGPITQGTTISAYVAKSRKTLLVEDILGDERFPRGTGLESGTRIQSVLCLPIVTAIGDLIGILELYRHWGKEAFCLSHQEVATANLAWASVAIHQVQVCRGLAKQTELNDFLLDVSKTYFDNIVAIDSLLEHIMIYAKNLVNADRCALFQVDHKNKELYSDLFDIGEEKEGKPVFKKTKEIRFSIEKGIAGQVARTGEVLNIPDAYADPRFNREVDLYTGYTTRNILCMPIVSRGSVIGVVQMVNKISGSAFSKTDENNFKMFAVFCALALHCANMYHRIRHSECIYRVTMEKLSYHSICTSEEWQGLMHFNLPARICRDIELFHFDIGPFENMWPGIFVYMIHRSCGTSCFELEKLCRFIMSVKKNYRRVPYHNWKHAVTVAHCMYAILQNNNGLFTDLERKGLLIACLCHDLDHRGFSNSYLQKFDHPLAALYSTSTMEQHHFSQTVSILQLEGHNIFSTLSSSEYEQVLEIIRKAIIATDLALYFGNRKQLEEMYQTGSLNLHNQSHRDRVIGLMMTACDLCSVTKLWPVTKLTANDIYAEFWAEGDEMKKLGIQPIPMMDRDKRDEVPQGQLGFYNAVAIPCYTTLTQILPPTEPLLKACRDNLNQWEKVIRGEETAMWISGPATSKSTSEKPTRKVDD

Biological target: Rat recombinant PDE10A (rPDE10A2) (Rattus norvegicus, UniProt Q9QYJ6)
Experiment: In vitro assay PDE10A (SPA, 3H-cAMP)
Format: biochemical
Conditions: -log IC50 expressed in mol/L; rPDE10A2, 60 nM cAMP

Cc1nc2ccc(C(=O)NCc3ccccc3)cc2n2c(-c3ccccc3)nnc12 [Compound B-9, N-Benzyl-4-methyl-1-phenyl[1,2,4]triazolo[4,3-a]quinoxaline-8-carboxamide]
PIC50 PDE10: 5.9
